Data set [1] relates to mice. Briefly: Radiation-protective evaluation in mice, 30-day survival after lethal irradiation.
For data set [2], the system named is mice. The experiment in a line: Toxicity (approximate LD50 / toxic deaths) in mice. To be noted: for Approximate LD50: mice, intraperitoneal.
The subject of data set [3] is mice. The following applies: taken from T. R. Sweeney; cited from earlier work.
The mark [4] stands for this setting: 37.5 mg/kg i.p., 30 min before 9.5 GY.
[5] abbreviates: 75 mg/kg i.p., 30 min before 9.5 GY.
Where [6] appears, read: 150 mg/kg i.p., 30 min before 9.5 GY.
Where [7] appears, read: 300 mg/kg i.p., 30 min before 10 GY.
The mark [8] stands for this setting: 600 mg/kg i.p., 30 min before 10 GY.

Here are results for ten molecules from patent publication US5298499A, “S-2-(substituted ethylamino)ethyl phosphorothioates” (Research Triangle Institute, priority 1991, dated 1994).

Structures are written as SMILES. Where two headings read alike, the source gives them in different places. Where only a bound is given, the exact number is not on record here.

Regarding `CNC(=S)CCNCCSP(=O)(O)O`, the “30-Day Survival” value in the data set with mice [1] (37.5 mg/kg i.p., 30 min before 10 GY) was 0%; in the data set with mice [1] (75 mg/kg i.p., 30 min before 10 GY) it was 0%; in the data set on mice [1] (150 mg/kg i.p., 30 min before 10 GY) it was 80%. Besides, the “protection at the highest dose tested” value in the data set on mice [1] turned out to be 80%.
`CNC(=N)CCNCCSP(=O)(O)O`: the “30-Day Survival” value worked out at 30% with mice [1] (setting [4]), 50% in the data set on mice [1] (setting [5]) and 80% with mice [1] (setting [6]). Besides, the “protection at the highest dose tested” value with mice [1] came out at 80%.
Turning to `C/N=C(/N)CCNCCSP(=O)(O)O`, the “Approximate LD50” value in the data set with mice [2] is reported as greater than 150 mg/kg.
As for `NC(=O)CCNCCSP(=O)(O)O`, the “Approximate LD50” value with mice [3] was 130 mg/kg; in the data set on mice [2], greater than 600 mg/kg. The toxic deaths entry in the data set with mice [2] (five mice, 600 mg/kg) is listed as “no toxic deaths”. In addition, the “30-Day Survival” value is given as 10% in the data set on mice [1] (setting [7]) and 70% in the data set with mice [1] (setting [8]).
On to `C/N=C(/S)CCNCCSP(=O)(O)O`, for which the “Approximate LD50” value in the data set with mice [2] was greater than 250 mg/kg.
The same measure, in the same setting: in the case of `N=C(S)CCNCCSP(=O)(O)O` it was greater than 300 mg/kg.
On to `N=C(N)CCNCCSP(=O)(O)O`, for which the “Approximate LD50” value in the data set on mice [2] is greater than 150 mg/kg. Also, the figures for the “30-Day Survival” value with mice [1] (setting [4]), in the data set on mice [1] (setting [5]) and in the data set on mice [1] (setting [6]) were 10%, 70% and 100%, respectively.
Regarding `O=P(O)(O)SCCNCCC1=NCCN1`, the “Approximate LD50” value in the data set with mice [2] was greater than 100 mg/kg. In addition, the “30-Day Survival” value stood at 0% in the data set on mice [1] (setting [4]); 20% in the data set on mice [1] (setting [5]); 80% with mice [1] (100 mg/kg i.p., 30 min before 9.5 GY). For the same molecule, the “protection at the highest dose tested” value with mice [1] worked out at 80%.
For the molecule `NC(=S)CCNCCSP(=O)(O)O`, the “30-Day Survival” value is recorded as 10% in the data set on mice [1] (setting [5]); 40% with mice [1] (setting [6]); 100% with mice [1] (300 mg/kg i.p., 30 min before 9.5 GY).
On to `CNC(=O)CCNCCSP(=O)(O)O`, for which, in the data set on mice [2], the “Approximate LD50” value is on record as greater than 600 mg/kg. Also, the “30-Day Survival” value in the data set with mice [1] (setting [7]) was determined as 20%; in the data set with mice [1] (setting [8]), 80%. The “protection at the highest dose tested” value in the data set on mice [1] was 80%.
